Hits are enriched below; roughly 1.6% of the tested compounds scored in any of these assays.
Yeast UUG start – modulators of start codon recognition fidelity in yeast; S. cerevisiae UUG-firefly luciferase reporter, luminescence/redox ratio; activity score, % at 18.7 µM; 0.13% of 350,000 active;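 active = replicate mean at a twofold rise or more, about +100% in these data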;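 also: firefly luciferase made from a UUG start codon reports start codon fidelity; reporter light over untreated wells divided by growth signal over untreated wells; some hits fall short of that in this replicate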
CAL PDZ FP-1 – untagged CAL PDZ binding inhibitors, primary screen, biochemical, fluorescence polarization, HTS | 300,000 compounds, 0.92% hits | inhibition, % at 24.9 µM | purified CAL PDZ, TMR-peptide fluorescence polarization, 1 h | AID 602252, 2012 | Golgi-associated PDZ and coiled-coil motif-containing protein (Homo sapiens), Q9HD26;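 active means mean inhibition of at least 30% with at least half of replicates also reaching 30%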;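 further: 0% = DMSO neutral control and 100% = excess unlabeled competitor peptide PRC23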
PglD inh – C. jejuni PglD acetyltransferase inhibitors, primary screen, biochemical, DTNB colorimetric, single point. UDP-N-acetylbacillosamine N-acetyltransferase PglD (Campylobacter jejuni). purified PglD enzyme, DTNB colorimetric CoA detection. inhibition, % at 12.5 µM. 360,000 compounds, 0.098% hits. AID 602405, 2012; in the data active means inhibition above about 16%, passing the limit was not always enough
ARNT TACC3 PPI – disruptors of ARNT/TACC3 protein interaction, primary screen, biochemical, AlphaScreen, single concentration. inhibition, % at 9.99 µM. AlphaScreen His-ARNT PAS-B/GST-TACC3 binding, luminescence; TACC3 fragment carries E629A point mutation. Transforming acidic coiled-coil-containing protein 3 (Homo sapiens), Q9Y6A5. AID 623870, 2012. 390,000 compounds, 0.66% hits;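 active means mean inhibition of replicates at least 50% and at least half of replicates each reaching 50%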;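 further: 0% = complete ARNT plus TACC3 wells and 100% = ARNT alone without TACC3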
CAL PDZ FP-2 – CAL PDZ peptide-binding inhibitors, primary screen, biochemical, fluorescence polarization, Cer-tagged CAL PDZ, HTS | purified CAL PDZ, TMR-peptide fluorescence polarization, 1 h | inhibition, % at 20 µM | 330,000 compounds, 0.02% hits | Golgi-associated PDZ and coiled-coil motif-containing protein (Homo sapiens), Q9HD26 | AID 504414, 2011;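 active means highest replicate inhibition of at least 40%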;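 further: plate controls were DMSO neutral control wells for no effect and unlabeled competitor peptide control wells for full effect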
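Test system: purified CerCALP PDZ construct; Compound dosing: one concentration, 20 µM compound; Also added: TMR-labelled reporter peptide T*-PRC34 bound in PDZ groove; Read-out: inhibition from polarization loss; Controls: unlabelled peptide and DMSO controls; Signal: FP readout, S and P plane fluorescence; Incubation: 1 h at RT.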
Vif inh – HIV Vif self-association inhibitors, primary screen, imaging, HEK293T, single point; HEK293T cells, Vif self-association by quenched fluorescence, 24 h; inhibition, % at 7.49 µM; 340,000 compounds, 0.35% hits; AID 602346, 2012; in the data active means inhibition above about 50%, passing the limit was not always enough
* hit, by the source's call.

Screening O=C(Cc1ccccn1)NCC[C@H]1CC[C@H](NC(=O)Nc2ccc(F)cc2)[C@H](CO)O1 returned Yeast UUG start 0, PglD inh 1 and ARNT TACC3 PPI 2.
Screening C[C@@H]1CN([C@H](C)CO)C(=O)c2cccc(NS(=O)(=O)c3ccccc3)c2O[C@@H]1CN(C)CC1CCCCC1 returned Yeast UUG start -2, PglD inh 2 and ARNT TACC3 PPI 13.
`O=C(CNCCc1ccccc1)N1CCc2ccccc2C1` gave Yeast UUG start 1, CAL PDZ FP-1 45*, PglD inh 4, ARNT TACC3 PPI 1, CAL PDZ FP-2 -1 and Vif inh -6.
Cc1c(C(=O)N2CCOCC2)c(S(=O)(=O)Nc2cccc(C#N)c2)c(C)n1C was read as Yeast UUG start -9, CAL PDZ FP-1 68*, PglD inh 3, ARNT TACC3 PPI -4, CAL PDZ FP-2 0 and Vif inh 5.
For CCCN(C)C[C@@H]1Oc2cc(-c3cccc(C#N)c3)ccc2S(=O)(=O)N([C@H](C)CO)C[C@@H]1C the results were Yeast UUG start -2, PglD inh -1 and ARNT TACC3 PPI 3.
For COCc1nnc(NC(=O)c2ccc(S(=O)(=O)N3CCCC3)cc2)o1 the results were Yeast UUG start -28, CAL PDZ FP-1 -1, PglD inh -1, ARNT TACC3 PPI 49*, CAL PDZ FP-2 -3 and Vif inh -3.
COc1ccccc1-c1nnc(NC(=O)c2ccc(S(=O)(=O)N(C)C)cc2)o1 was read as Yeast UUG start -9, CAL PDZ FP-1 3, PglD inh -4, ARNT TACC3 PPI 57*, CAL PDZ FP-2 -3 and Vif inh 22.
For CCc1nnc(NC(=O)c2ccc(S(=O)(=O)N(CCOC)CCOC)cc2)o1 the results were Yeast UUG start -22, CAL PDZ FP-1 -4, PglD inh 0, ARNT TACC3 PPI 46*, CAL PDZ FP-2 -1 and Vif inh 36.
For COCCN(CCOC)S(=O)(=O)c1ccc(C(=O)Nc2nnc(C3CC3)o2)cc1 the results were Yeast UUG start -24, CAL PDZ FP-1 -2, PglD inh 11, ARNT TACC3 PPI 47*, CAL PDZ FP-2 -2 and Vif inh -7.
`CCCCN(CC)S(=O)(=O)c1ccc(C(=O)Nc2nnc(COC)o2)cc1` gave Yeast UUG start -31, CAL PDZ FP-1 0, PglD inh 0, ARNT TACC3 PPI 29 and CAL PDZ FP-2 -3.
Screening CCN(Cc1ccccc1)S(=O)(=O)c1ccc(C(=O)Nc2nnc(-c3ccccc3OC)o2)cc1 returned Yeast UUG start -7, CAL PDZ FP-1 -9, PglD inh 1, ARNT TACC3 PPI 10 and Vif inh 1.
For CC(=O)N(C)C[C@@H]1Oc2ncc(C#Cc3ccncc3)cc2C(=O)N([C@H](C)CO)C[C@H]1C the results were Yeast UUG start 5, PglD inh -5 and ARNT TACC3 PPI -6.
Screening CCCN(C)C[C@H]1OCCCC[C@H](C)Oc2ccc(NC(=O)C3CCCCC3)cc2C(=O)N([C@@H](C)CO)C[C@H]1C returned Yeast UUG start 34, PglD inh 0 and ARNT TACC3 PPI 4.
O=C(COC(=O)c1ccc([N+](=O)[O-])s1)Nc1ncc(C(F)(F)F)cc1Cl was read as Yeast UUG start -6, CAL PDZ FP-1 71*, PglD inh -1, ARNT TACC3 PPI 1, CAL PDZ FP-2 1 and Vif inh -14.
For Cc1ccc(NC(=O)OCCNC(=O)OC(C)C)cc1 the results were CAL PDZ FP-1 38*, ARNT TACC3 PPI -1, CAL PDZ FP-2 0 and Vif inh -3.
C[C@H](NC(=O)C[C@@H]1C[C@@H]2c3cc(NC(=O)c4cccnc4)ccc3O[C@@H]2[C@H](CO)O1)c1ccccc1 was read as PglD inh 0 and ARNT TACC3 PPI 2.
Screening Fc1ccc(CN2CCN(C(=S)NCCc3ccccc3)CC2)c(Cl)c1 returned CAL PDZ FP-1 34*, ARNT TACC3 PPI -9, CAL PDZ FP-2 0 and Vif inh -12.
Screening COc1cccc(-c2ccnc3[nH]n(-c4ccccc4)c(=O)c23)c1 returned Yeast UUG start -13, CAL PDZ FP-1 67*, PglD inh -5, ARNT TACC3 PPI -7, CAL PDZ FP-2 -1 and Vif inh -4.
For COc1ccc(-c2ccnc3[nH]n(-c4ccccc4)c(=O)c23)cc1 the results were Yeast UUG start -15, CAL PDZ FP-1 60*, PglD inh 2, ARNT TACC3 PPI -6, CAL PDZ FP-2 -1 and Vif inh 9.
`O=c1c2c(-c3ccc([N+](=O)[O-])cc3)ccnc2[nH]n1-c1ccccc1` gave Yeast UUG start -14, CAL PDZ FP-1 0, PglD inh -5, ARNT TACC3 PPI -5 and Vif inh 3.

Quoted from the listing (three entries):
For Cc1ccc(NC(=O)OCCNC(=O)OC(C)C)cc1 the results were CAL PDZ FP-1 38*, ARNT TACC3 PPI -1, CAL PDZ FP-2 0 and Vif inh -3.
C[C@H](NC(=O)C[C@@H]1C[C@@H]2c3cc(NC(=O)c4cccnc4)ccc3O[C@@H]2[C@H](CO)O1)c1ccccc1 was read as PglD inh 0 and ARNT TACC3 PPI 2.
Screening Fc1ccc(CN2CCN(C(=S)NCCc3ccccc3)CC2)c(Cl)c1 returned CAL PDZ FP-1 34*, ARNT TACC3 PPI -9, CAL PDZ FP-2 0 and Vif inh -12.

Next section.
Screening Cc1ccc(S(=O)(=O)NCCNS(=O)(=O)c2ccc(C)cc2)cc1 returned Yeast UUG start -13, CAL PDZ FP-1 56*, PglD inh 5, ARNT TACC3 PPI -3 and Vif inh -2.
CCc1ccc(N2C(=O)/C(=C/c3cccs3)N(CC(=O)OC)C2=S)cc1 was read as Yeast UUG start -10, CAL PDZ FP-1 -1, PglD inh -6, ARNT TACC3 PPI 6, CAL PDZ FP-2 -2 and Vif inh 116*.
`CCS(=O)(=O)Nc1ccc2c(c1)C(=O)N(C)[C@H]1CC[C@@H](CC(=O)N3CCOCC3)O[C@H]1CO2` gave Yeast UUG start -2, PglD inh 1 and ARNT TACC3 PPI 1.
`N#CCc1nn(-c2ccc(Cl)cc2)c(N)c1C#N` gave Yeast UUG start -19, CAL PDZ FP-1 -1, PglD inh 6, ARNT TACC3 PPI 4, CAL PDZ FP-2 0 and Vif inh 6.
N#CCc1nn(-c2ccccc2)c2ncnc(N)c12 was read as CAL PDZ FP-1 103*, ARNT TACC3 PPI 3, CAL PDZ FP-2 0 and Vif inh 33.
For CCNC(=O)Nc1ccc2c(c1)C(=O)N(C)[C@H]1CC[C@@H](CC(=O)N[C@H](C)c3ccccc3)O[C@H]1CO2 the results were PglD inh 1 and ARNT TACC3 PPI active.
Screening C[C@H](CO)N1C[C@H](C)[C@H](CN(C)C(=O)Nc2ccccc2)Oc2ccc(NC(=O)Nc3ccc(F)cc3)cc2C1=O returned Yeast UUG start 10, PglD inh -2 and ARNT TACC3 PPI -9.
